Measured values published in patent US9856300B2, “Dpy-30 binding peptides and methods of use” (Marquette University, priority 2011, dated 2018).
“Also recorded” adds a separate entry of the source.

Amino acid sequences for entries named in this document (tags omitted). Residues count along the entry.
UniProt P00514, 1-81: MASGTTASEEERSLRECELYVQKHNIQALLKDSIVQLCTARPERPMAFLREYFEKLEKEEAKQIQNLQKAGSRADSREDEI

Assays:
[1] = target: T1, RIIα D/D (a.a.#[…]) (Mus musculus, S2G); assay: Ni-NTA pulldown with His-RIIα D/D; format: binding
T1 construct: made in house; host or cells: E. coli BL21(DE3); template pRSETB-RIIα from Dr. Susan Taylor
Description: Most AHs are mono-specific to RIIα D/D except a few that are either RIα D/D-specific (Angelo and Rubin, 1998; Means et al., 2011; Welch et al., 2010) or dual specific, binding to both (Huang et al., 1997; Jarnaess et al., 2008). To test if hAsh2 AH can cross-react with PKA's D/D, we created constructs expressing the D/D domain and the flanking sequences from bovine RIα (a.a.#1-81) and mouse RIIα (a.a.#1-64). His-RIα D/D or His-RIIα D/D was co-expressed with GST-RSP396-180, which contains the AH (RSP3160-178) that bind RII in the overlay assay (Gaillard et al., 2001). […] In the eluate, the ratio of RSP396-180-RIα D/D was the lowest, followed by RSP396-180-RIIα D/D and then RSP396-180-RIIα D/D from RSP7, the de facto partner of RSP3. Although RSP396-180 in the extract was also the most concentrated when co-expressed with RSP7's RIIα, this likely is due to effective binding of RSP7's D/D, protecting GST-RSP396-180 from proteolysis, which occurred when GST-RSP396-180 was expressed by itself (not shown). Similarly, when co-expressed with GST-hAsh2593-623, RIα D/D and RIIα D/D were depleted in the flow through but few polypeptides, especially RIIα D/D, were present in the eluate (FIG. 12A, right panel, compare Extract, Post and Elute). […]

[2] = test system: Dpy-30 D/D, RIα D/D, RIIα D/D; assay: Glutathione Sepharose purification of GST-hAsh2593-623 from mixtures of two D/D domains; format: binding; conditions: equal volumes of extracts mixed, excessive RIα and RIIα
Procedure: To test if the 300 mM NaCl in all buffers for Ni-NTA affinity purification dissociated the cross-recognition, the NaCl concentration was decreased to 100 mM. […] To directly compare the association, all fusion proteins were expressed separately, and equal volume of the extracts containing RIα D/D, Dpy-30 D/D, and GST-hAsh2593-623 were mixed together and then with Glutathione Sepharose. A parallel experiment was conducted with RIα D/D, RIIα D/D and GST-hAsh2593-623.
(§1) All expression constructs were transformed or co-transformed into BL21(DE3) cells. The colonies were selected based on the antibiotic-resistant gene in each plasmid. The cultures were induced with 1 mM IPTG overnight at 18° C. The cell pellet from a 5-ml culture was resuspended in 750-μl lysis buffer supplemented with Complete Mini EDTA-free protease inhibitor cocktail tablets (Roche) and the suspension was sonicated on ice using Branson digital Sonifier until clarified (Emerson Industrial Automation). The sonicated mixtures were centrifuged at 4° C., 12,000 rpm for 25 min. The supernatant or combinations of supernatants as indicated were incubated with ˜100 μl Ni-NTA (Qiagen or Clontech) or Glutathione Sepharose 4B (Amersham Biosciences) for 1 hour at room temperature. The matrix was subsequently washed as instructed by manufacturers, unless indicated otherwise.

Dpy-30 (Homo sapiens) = target: T2, Dpy-30 (Homo sapiens); assay: Ni-NTA pulldown of GST-hAsh2 peptides with His-Dpy-30; format: binding; set-up: key to co-purified with Dpy-30: “+” or “−” indicates if the peptides were or were not evidently co-purified with Dpy-30; “+” or “−” indicates if the peptides were or were not evidently co-purified with Dpy-30
T2 construct: Dpy-30 fragments, full length or a.a.#49-99, were amplified using purchased IMAGE cDNA clone #4081996 as a template; made in house; host or cells: E. coli BL21(DE3)
Description: To test this, we performed pull down assays for His-Dpy-30 and GST-hAsh2593-623. The human Ash2 fragment contains a helix with two typical and three atypical ΦΦXX motifs. The hAsh2 DNA was fused downstream to GST DNA by PCR and the product was cloned into an expression vector. Three clones—#9 and #14 with the expected in-frame fusion and #6 with an out-of-frame fusion—were expressed in bacteria. Their extract was mixed with equal volume of bacterial extract with His-Dpy-30; and the mixture was subjected to Ni-NTA purification. […] Thus hAsh2593-623 interacts with Dpy-30 specifically.
Table 3 illustrates the protein sequences of hAsh2's C-terminal region (hAsh2593-623) and its variants, where “+” or “−” indicates if the peptides were or were not evidently co-purified with Dpy-30. The shorter fusion protein GST-hAsh2593-617 that terminated right after the last possible ΦΦXX-like motif, VETE (SEQ ID NO:35), in the helix was also co-purified with His-Dpy-30 (FIG. 11B, arrow and double arrowheads), no matter expressed separately or co-expressed. Both polypeptides were depleted in the flow through of Ni-NTA matrix (Post in FIG. 11B) and retained in the eluate.
All expression constructs were transformed or co-transformed into BL21(DE3) cells. The colonies were selected based on the antibiotic-resistant gene in each plasmid. The cultures were induced with 1 mM IPTG overnight at 18° C. […]

RIα D/D (a.a.#1-81) = target: T3, RIα D/D (a.a.#1-81) (Bos taurus, UniProt P00514); assay: Ni-NTA pulldown with His-RIα D/D; format: binding, bovine
T3 construct: made in house; host or cells: E. coli BL21(DE3); template pRSETB-RIα from Dr. Susan Taylor
Description: Most AHs are mono-specific to RIIα D/D except a few that are either RIα D/D-specific (Angelo and Rubin, 1998; Means et al., 2011; Welch et al., 2010) or dual specific, binding to both (Huang et al., 1997; Jarnaess et al., 2008). To test if hAsh2 AH can cross-react with PKA's D/D, we created constructs expressing the D/D domain and the flanking sequences from bovine RIα (a.a.#1-81) and mouse RIIα (a.a.#1-64). His-RIα D/D or His-RIIα D/D was co-expressed with GST-RSP396-180, which contains the AH (RSP3160-178) that bind RII in the overlay assay (Gaillard et al., 2001). […] In the eluate, the ratio of RSP396-180-RIα D/D was the lowest, followed by RSP396-180-RIIα D/D and then RSP396-180-RIIα D/D from RSP7, the de facto partner of RSP3. Although RSP396-180 in the extract was also the most concentrated when co-expressed with RSP7's RIIα, this likely is due to effective binding of RSP7's D/D, protecting GST-RSP396-180 from proteolysis, which occurred when GST-RSP396-180 was expressed by itself (not shown). Similarly, when co-expressed with GST-hAsh2593-623, RIα D/D and RIIα D/D were depleted in the flow through but few polypeptides, especially RIIα D/D, were present in the eluate (FIG. 12A, right panel, compare Extract, Post and Elute).
Although both RIα D/D and Dpy-30 D/D have a common α0 helix (Wang et al., 2009), GST-hAsh2593-623 cross reacted with RIα D/D poorly. We wondered if this was due to disulfide bonds via the conserved cysteine residues in RIα D/D in oxidative states. To test this, the samples from repeated experiments were analyzed in the non-reducing SDS-PAGE. […] To test if the presence of a reducing agent would improve the association, Ni-NTA pulldown was conducted in the presence of 5 mM β-mercaptoethanol.
To test if the 300 mM NaCl in all buffers for Ni-NTA affinity purification dissociated the cross-recognition, the NaCl concentration was decreased to 100 mM. […]

[3] = target: T4, Dpy-30 D/D (a.a. #[…]) (Homo sapiens); assay: Ni-NTA pulldown of GST-hAsh2 peptides with His-Dpy-30 D/D; format: binding; conditions: His-Dpy-30 D/D a.a. #[…] co-expressed
T4 construct: His-Dpy-30 D/D (a.a. #49-99) was co-expressed with GST-hAsh2593-623; made in house; host or cells: E. coli BL21(DE3)
Description: To differentiate if the interaction is via the Dpy-30 domain or the N-terminal fragment, His-Dpy-30 D/D (a.a. #49-99) was co-expressed with GST-hAsh2593-623 (FIG. 11C). To define the N-terminal end of Dpy-30 D/D binding site in hAsh2, W599 in the first potential ΦΦXX motif was mutated into P to disrupt helicity, an approach to abolish D/D-binding (Carr et al., 1982; Burns-Hamuro et al., 2003). […] Thus, the site that directly binds Dpy-30 D/D resides within hAsh2600-617 that is after W599 and contains four ΦΦXX-like motifs, even though an acidic residue occupies a supposedly hydrophobic position in the last motif, VETE (SEQ ID NO:35). The affinity may be further enhanced by adjacent sequences (Burns-Hamuro et al., 2003; Banky et al., 2003).
as §1, with “The supernatant or combinations of supernatants as indicated were incubated with ˜100 μl Ni-NTA (Qiagen or Clontech) or Glutathione Sepharose 4B (Amersham Biosciences) for 1 hour at room temperature. The matrix was subsequently washed as instructed by manufacturers, unless indicated otherwise.” left out

[4] = NaCl decreased from 300 mM to 100 mM

co-purification with RIIα D/D at lower salt [1, 4]: enhance the co-purification | co-purification with His-RIIα D/D ([1]; Ni-NTA, 300 mM NaCl buffers): negligible | co-purified with Dpy-30 (Dpy-30 (Homo sapiens); GST-fused hAsh2 peptides, Ni-NTA pulldown, Coomassie-stained SDS-PAGE): + | co-purification with His-Dpy-30 (Dpy-30 (Homo sapiens); full-length His-Dpy-30, Ni-NTA, result in words): co-purified | pulldown with RIα D/D in the presence of a reducing agent (RIα D/D (a.a.#1-81); 5 mM β-mercaptoethanol): did not increase the pulldown | co-purification with RIα D/D at lower salt (RIα D/D (a.a.#1-81); [4]): not | co-purification with His-RIα D/D (RIα D/D (a.a.#1-81); Ni-NTA, 300 mM NaCl buffers, listed as GST-hAsh2593-623): poorly; also recorded: A small fraction | co-purification with the Dpy-30 domain [3]: still co-purified
Sequence: PMSDMGWGAVVEHTLADVLYHVETEVDGRRS (GST fusion; listed as Homo sapiens) [hAsh2593-623, human Ash2 C-terminal fragment a.a; 593-623, expressed and tested as a GST fusion protein]
D/D domain pulled down from mixed extracts (selectivity) [2]: only Dpy-30 domain was obviously pulled down
